{"source": "ChEMBL document CHEMBL6153118", "about": "“Structure Optimization of Natural Product Catalpol to Obtain Novel and Potent Analogs against Heart Failure” (J Med Chem, 2025)", "assay": "Metabolic stability in human liver microsomes assessed as half life measured for 5 to 60 mins in presence of NADPH by LC-MS/MS analysis", "assay_type": "ADME, Microsome", "settings": "time 5-60 min"}
{"smiles": "O=C(O)Cc1ccccc1Nc1c(Cl)cccc1Cl", "note": "[DICLOFENAC]", "values": [{"measurement": "t1/2", "value": 6.2, "unit": "min"}]}
